Source: publication PMC12723675, “Evaluating BindCraft for Generative Design of High-Affinity Peptides” (ACS Chemical Biology, 2025)

Molecular target: WDR5 (Myc binding site) (Homo sapiens, UniProt P61964)
Assay: BLI full binding curves, WDR5 Myc-site peptides

## CSCC[C@@H]1NC(=O)[C@H](Cc2ccccc2)NC(=O)[C@H](CCC(N)=O)NC(=O)[C@@H](NC(=O)[C@H](Cc2ccccc2)NC(=O)[C@H](CC(=O)O)NC(=O)[C@H](CCC(=O)O)NC(=O)[C@H](CC(=O)O)NC(=O)[C@H](CC(=O)O)NC(=O)CCNC(=O)[C@H](CCCCNC(=O)CCCC[C@@H]2SC[C@@H]3NC(=O)N[C@@H]32)NC(C)=O)CSCc2cccc(c2)CSC[C@@H](C(=O)N[C@@H](CC(=O)O)C(=O)N[C@@H](CC(C)C)C(=O)N[C@@H](CC(=O)O)C(=O)N[C@@H](CCC(=O)O)C(=O)N[C@@H](Cc2ccccc2)C(=O)N[C@@H](CC(C)C)C(=O)N[C@@H](CCCCN)C(N)=O)NC1=O [WDR5 Myc B1 stapled]
  Kd: 39 nM
